Consider 1 molecule from patent US20240245798A1, “NOVEL ANTI-TPBG ANTIBODY AND ANTIBODY-DRUG-CONJUGATES BASED THEREON, THERAPEUTIC METHODS AND USES THEREOF” (Tubulis GmbH, priority 2022, published 2024).

Common to all, as to type: cell-based
In data set [1] the test system is BXPC-3 cells. Briefly: In vitro cytotoxicity via resazurin assay, comparison with Anti-TPBG comparison ADC2, BXPC-3. The following applies: BXPC-3 cells with lower 5T4 expression; 7 days.
Data set [2] has as its system SW-620. Briefly: In vitro cytotoxicity via resazurin assay on antigen negative cell line SW-620. The note with it: direct treatment. A general note: Resazurin is reduced to fluorescent resorufin, in cell work by metabolically active cells.
Data set [3] has as its system 5T4-negative cells (SW-620). Briefly: Bystander killing, supernatant transfer. The following applies: supernatant from MDA-MB-468 or BXPC-3 after 5 days, SW-620 another 5 days. How it is done: To analyze bystander activity of ADCs on target-negative cells, 20.000 5T4-positive cells (MDA-MB-468 or BXPC-3) were incubated with increasing concentrations of ADCs (0-3 μg/ml). After 5 days, half of the cell culture supernatant volumes was transferred to 5.000 5T4-negative cells (SW-620) and incubated for another 5 days. Killing was analyzed by a resazurin-based viability measurement as described above.

B1: Anti-TPBG comparison ADC2: Anti-TPBG comparison antibody2 conjugated to MC-VC-SECO-DUBA, DAR estimated 1.7 (conjugate)
heavy: EVQLEESGGGLVKPGGSLRLSCAASGIDLSHYVVGWVRQAPGKGLEWVSIIYGSGRTYYANWAKGRFTISRDNSKNTLYLQMNSLRAEDTAVYYCARDASVSVYYWGYFDLWGRGTLVTVSSASTKGPSVFPLAPSSKSTSGGTAALGCLVKDYFPEPVTVSWNSGALTSGVHTFPAVLQSSGLYSLSSVVTVPSSSLGTQTYICNVNHKPSNTKVDKKV[human IgG1 Fc with changes not spelt out]
light: DIQMTQSPSTLSASVGDRVTITCQASQSIGSELAWYQQKPGKAPKLLIYRASTLESGVPSRFSGSGSGTEFTLTISSLQPDDFATYYCQQGYTYSEIDNAFGQGTKVEIKRTVAAPSVFIFPPSDEQLKSGTASVVCLLNNFYPREAKVQWKVDNALQSGNSQESVTEQDSKDSTYSLSSTLTLSKADYEKHKVYACEVTHQGLSSPVTKSFNRGEC
With B1, the Cytotoxic activity entry in data set [1] is recorded as “not active at all”. Also, the “Effect on antigen negative cell line SW-620 without preincubation with antigen positive cells” value in data set [2] was “did not have an effect”. Further, in data set [3], the “Bystander activity on target-negative cells after supernatant transfer from target-positive cells” value was “did not exhibit bystander effects at all”.
